In ChEMBL document CHEMBL4340580, “Antibacterial and Inhibitory Activities against Nitric Oxide Production of Coumaronochromones and Prenylated Isoflavones from Millettia extensa” (J Nat Prod, 2019):

Columns and labels:
Type in all cases: functional
Salmonella typhimurium = experiment: Antibacterial activity against Salmonella typhimurium by CLSI protocol based method; details: Salmonella enterica subsp. enterica serovar Typhimurium
Pseudomonas aeruginosa = experiment: Antibacterial activity against Pseudomonas aeruginosa by CLSI protocol based method
In short: (§1)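 Strains came from the Microbiological Resources Center, Bangkok, Thailand. Antibacterial testing followed Clinical and Laboratory Standards Institute recommendations.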

Shigella flexneri = experiment: Antibacterial activity against Shigella flexneri by CLSI protocol based method; in short: as §1

Measured: MIC

GENTAMICIN
0.5 µg/mL: all assays above
